According to article PMC5777823 (eLife, 2017):

Biological target: T1, CENP-C^[…] (human)
T1 construct: pGEX-6P-2rbs; named without GST in the assays; source: bacteria, purified as described (Klare et al., 2015)
Assay: SEC; analytical SEC on Superdex 200 5/150 or Superose 6 5/150; 20 mM HEPES pH 7.5, 300 mM NaCl, 2.5% glycerol, 2 mM TCEP, 4°C; proteins mixed at 6 μM, one hour on ice; fractions by SDS-PAGE and Coomassie
Conditions: both partners purified

B1: CENP-L:CENP-N^230-C complex (complex, human)
chain 1: MDSYSAPESTPSASSRPEDYFIGATPLQKRLESVRKQSSFILTPPRRKIPQCSQLQEDVDPQKVAFLLHKQWTLYSLTPLYKFSYSNLKEYSRLLNAFIVAEKQKGLAVEVGEDFNIKVIFSTLLGMKGTQRDPEAFLVQIVSKSQLPSENREGKVLWTGWFCCVFGDSLLETVSEDFTCLPLFLANGAESNTAIIGTWFQKTFDCYFSPLAINAFNLSWMAAMWTACKMDHYVATTEFLWSVPCSPQSLDISFAIHPEDAKALWDSVHKTPGEVTQEEVDLFMDCLYSHFHRHFKIHLSATRLVRVSTSVASAHTDGKIKILCHKYLIGVLAYLTELAIFQIE
chain 2: DINMDSRIIHENIVEKERVQRITQETFGDYPQPQLEFAQYKLETKFKSGLNGSILAEREEPLRCLIKFSSPHLLEALKSLAPAGIADAPLSPLLTCIPNKRMNYFKIRDK
notes: CENP-L, human; CENP-N, human, residues 230 to the C-terminus of the 339-residue protein; Form used in SEC and ITC, named without GST; tag probably cleaved with 3C protease; also called CENP-LN^230-C; CENP-LN^230-C dimer; source: Tnao38 insect cells (baculovirus, co-expressed), purified (GSH-Sepharose, Superdex 200)
Question: Does B1 bind?
Answer: binds
